From patent EP4837906A1, “NOVEL COMPOUND USED AS CBP/PA300 INHIBITOR, AND PHARMACEUTICAL COMPOSITION FOR PREVENTING OR TREATING CANCER, INFLAMMATORY DISORDERS, OR AUTOIMMUNE DISEASES COMPRISING SAME AS ACTIVE INGREDIENT” (dated 2026)

Chains of the proteins cited; added tags and fusions are not shown. Residues count along the entry.
UniProt Q92793, 1085-1192 limits assumed: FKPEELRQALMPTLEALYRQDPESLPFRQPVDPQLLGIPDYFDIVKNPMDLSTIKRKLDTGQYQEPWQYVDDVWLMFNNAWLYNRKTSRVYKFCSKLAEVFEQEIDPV

Legend:
[1] = target: BRD4 (BD1) protein (Homo sapiens, UniProt O60885); test: BRD4 inhibitory activity, TR-FRET assay of BRD4 bromodomain with Ac-H4 peptide; details: read-out: BRD4 (BD1) IC50, BRD4 (BD1) protein 7.5 nM, Ac-H4 peptide 15 nM, 2 hours at room temperature
Protocol: BRD4 inhibitory activity was measured using a time resolved fluorescence resonance energy transfer (TR-FRET) experiment to verify the activity of BRD4 bromodomain.
(§1) The assay was performed in a final volume of 14 µl, optimized based on a CREBBP time resolved fluorescence resonance energy transfer (TR-FRET) assay kit (BPS Bioscience, cat. 32613) to maximize an assay window, and performed in a final volume of 14 µl, while maximizing the assay window. A TR-FRET fluorescence acceptor and a Tb donor were diluted in an assay buffer containing 2-[4-(2-hydroxyethyl)piperazin-1-yl]ethanesulfonic acid (hereafter, referred to as an assay buffer, BPS Bioscience, cat. 33012), and 3 µl of each solution was transferred to all wells of a white 384-low-volume well plate (Corning, cat. 4513). 2 µl of 4X Ac-H4 peptide (final concentration 15 nM) was transferred to high control wells and test wells. Each compound was prepared at 10 concentration points by serially diluting 3-fold from the highest concentration in a dimethyl sulfoxide solvent. The compound at each concentration was then diluted in the assay buffer to prepare a diluted compound solution that was 4-fold more concentrated than the final concentration. 2 µl of each compound or dimethyl sulfoxide prepared in this way was distributed into an assay plate so that the final test concentration was a minimum of 0.5 µM to a maximum of 10 µM (final dimethyl sulfoxide concentration 1%). 6 µL of 1X assay buffer was added to low control wells and 2 µl was added to high control and test wells. Then, 2 µl of 4X BRD4 (BD1) protein (final concentration 7.5 nM, BPS bioscience, cat 31040) was added to initiate a PPI reaction. The plate was reacted at room temperature for 2 hours before measuring the signal. The TR-FRET signal was measured using an EnVision Multilabel plate reader (PerkinElmer; Mirror LNACE/DELFIA Dual/Bias). For data analysis, the values of each well were obtained using a TR-FRET ratio ((Signal 665 nm/Signal 615 nm) X20000. Data analysis was performed using the TR-FRET ratio ((Signal 665 nm/Signal 615 nm) X20000. Data were reported as percent inhibition compared to control wells based on the following equation: %Activity = ((FRETcompound - FRETLow av)/(FRETHigh av - FRETLow av)) X100. IC50 analysis was determined by standard 4 parameter curve fitting according to an algorithm using GraphPad Prism 7.0 (GraphPad Software Inc., La Jolla, CA, USA). All data are expressed as mean ± standard error of the mean (SEM).

[2] = target: CBP BRD protein (Homo sapiens, UniProt Q92793); test: CBP inhibitory activity, TR-FRET assay of CBP bromodomain with Ac-H4 peptide; details: read-out: CBP BRD IC50, CBP BRD protein 7.5 nM, Ac-H4 peptide 85 nM, 2 hours at room temperature
Protocol: CBP inhibitory activity was measured using a time resolved fluorescence resonance energy transfer (TR-FRET) experiment to verify the activity of CBP bromodomain.
as §1, with “32619)” for “32613)”, “85” for “15”, “CBP BRD” for “BRD4 (BD1)”, “31128)” for “31040)”, “Dual/Bias).” for “Dual/Bias). For data analysis, the values of each well were obtained using a TR-FRET ratio ((Signal 665 nm/Signal 615 nm) X20000. Data analysis was performed using the TR-FRET ratio ((Signal 665 nm/Signal 615 nm) X20000. Data were reported as percent inhibition compared to control wells based on the following equation: %Activity = ((FRETcompound - FRETLow av)/(FRETHigh av - FRETLow av)) X100. IC50 analysis was determined by standard 4 parameter curve fitting according to an algorithm using GraphPad Prism 7.0 (GraphPad Software Inc., La Jolla, CA, USA). All data are expressed as mean ± standard error of the mean (SEM).”
For data analysis, the values of each well were obtained using a TR-FRET ratio ((Signal 665 nm/Signal 615 nm)X20000. Data analysis was performed using the TR-FRET ratio ((Signal 665 nm/Signal 615 nm)X20000. Data were reported as percent inhibition compared to control wells based on the following equation: %Activity = ((FRETcompound - FRETLow av)/(FRETHigh av - FRETLow av))X100. IC50 analysis was determined by standard 4 parameter curve fitting according to an algorithm using GraphPad Prism 7.0 (GraphPad Software Inc., La Jolla, CA, USA). All data are expressed as mean ± standard error of the mean (SEM).

IC50 [1] [µM] | IC50 [2] [µM] | Compound
> 5 | 0.5 to 5 | Cn1cncc1-c1nc2cc(-c3ccc4c(c3)CCO4)ccc2n1-c1ccc2c(c1)n(C)c(=O)n2C
> 5 | 0.5 to 5 | Cn1cncc1-c1nc2cc(-c3cnn(CC(F)F)c3)ccc2n1-c1ccc2c(c1)n(C)c(=O)n2C
> 5 | 0.5 to 5 | CNC(=O)c1ccc(-c2ccc3c(c2)nc(-c2ccoc2)n3-c2ccc3c(c2)n(C)c(=O)n3C)cc1F
> 5 | 0.5 to 5 | CNC(=O)c1ccc(-c2ccc3c(c2)nc(-c2ccccc2Cl)n3-c2ccc3c(c2)n(C)c(=O)n3C)cc1F
> 5 | 0.5 to 5 | Cn1cncc1-c1nc2cc(-c3cccnc3)ccc2n1-c1ccc2c(c1)n(C)c(=O)n2C
> 5 | < 0.5 | CNC(=O)c1ccc(-c2ccc3c(c2)nc(-c2cccnc2OC)n3-c2ccc3c(c2)n(C)c(=O)n3C)cc1F
> 5 | 0.5 to 5 | CNC(=O)c1ccc(-c2ccc3c(c2)nc(-c2cccnc2N)n3-c2ccc3c(c2)n(C)c(=O)n3C)cc1F
> 5 | 0.5 to 5 | Cn1cncc1-c1nc2cc(-c3ccnc(F)c3)ccc2n1-c1ccc2c(c1)n(C)c(=O)n2C
> 5 | < 0.5 | CNC(=O)c1ccc(-c2ccc3c(c2)nc(-c2cccc(C4CC4)c2C)n3-c2ccc3c(c2)n(C)c(=O)n3C)cc1F
> 5 | > 5 | CNC(=O)c1ccc(-c2ccc3c(c2)nc(-c2cscn2)n3-c2ccc3c(c2)n(C)c(=O)n3C)cc1F
> 5 | 0.5 to 5 | CNC(=O)c1ccc(-c2ccc3c(c2)nc(-c2cccnc2)n3-c2ccc3c(c2)n(C)c(=O)n3C)cc1F
> 5 | 0.5 to 5 | CNC(=O)c1ccc(-c2ccc3c(c2)nc(-c2cccc(C#N)c2C)n3-c2ccc3c(c2)n(C)c(=O)n3C)cc1F
> 5 | 0.5 to 5 | CNC(=O)c1ccc(-c2ccc3c(c2)nc(-c2ccccc2C(F)(F)F)n3-c2ccc3c(c2)n(C)c(=O)n3C)cc1F
0.5 to 5 | < 0.5 | Cn1cncc1-c1nc2cc(-c3ccc(=O)[nH]c3)ccc2n1-c1ccc2c(c1)n(C)c(=O)n2C
> 5 | < 0.5 | Cn1ccc(-c2ccc3c(c2)nc(-c2cncn2C)n3-c2ccc3c(c2)n(C)c(=O)n3C)n1
> 5 | 0.5 to 5 | CNC(=O)c1ccc(-c2ccc3c(c2)nc(-c2cccc(Cl)c2Cl)n3-c2ccc3c(c2)n(C)c(=O)n3C)cc1F
> 5 | < 0.5 | Cn1cncc1-c1nc2cc(-c3ccc4c(c3)OCO4)ccc2n1-c1ccc2c(c1)n(C)c(=O)n2C
> 5 | 0.5 to 5 | CNC(=O)c1ccc(-c2ccc3c(c2)nc(-c2ccsc2)n3-c2ccc3c(c2)n(C)c(=O)n3C)cc1F
> 5 | 0.5 to 5 | Cn1cncc1-c1nc2cc(-c3ccccn3)ccc2n1-c1ccc2c(c1)n(C)c(=O)n2C
> 5 | < 0.5 | CC(=O)Nc1ccc(-c2ccc3c(c2)nc(-c2cncn2C)n3-c2ccc3c(c2)n(C)c(=O)n3C)cc1
> 5 | 0.5 to 5 | Cn1cncc1-c1nc2cc(-c3cnn(CCO)c3)ccc2n1-c1ccc2c(c1)n(C)c(=O)n2C
> 5 | > 5 | CNC(=O)c1ccc(-c2ccc3c(c2)nc(C(C)(C)NC(=O)OC(C)(C)C)n3-c2ccc3c(c2)n(C)c(=O)n3C)cc1F

IC50 [1] [µM] | IC50 [2] [µM] | Compound
> 5 | < 0.5 | CNC(=O)c1ccc(-c2ccc3c(c2)nc(-c2cccn2C)n3-c2ccc3c(c2)n(C)c(=O)n3C)cc1F
> 5 | 0.5 to 5 | CCN1CCC(c2ccc3c(c2)nc(-c2c[nH]c4cc(C)ccc24)n3-c2ccc3c(c2)n(C)c(=O)n3C)CC1
> 5 | < 0.5 | CN(C)c1cccc(-c2ccc3c(c2)nc(-c2cncn2C)n3-c2ccc3c(c2)n(C)c(=O)n3C)c1
0.5 to 5 | < 0.5 | CNC(=O)c1ccc(-c2ccc3c(c2)nc(-c2cncn2C)n3-c2ccc3c(c2)n(C)c(=O)n3C)cc1
0.5 to 5 | 0.5 to 5 | Cn1cc(-c2ccc3c(c2)nc(-c2cncn2C)n3-c2ccc3c(c2)n(C)c(=O)n3C)cn1
> 5 | 0.5 to 5 | Cc1ccc2c(-c3nc4cc(-c5cnn(C)c5)ccc4n3-c3ccc4c(c3)n(C)c(=O)n4C)c[nH]c2c1
> 5 | 0.5 to 5 | Cn1cncc1-c1nc2cc(-c3ccnn3C)ccc2n1-c1ccc2c(c1)n(C)c(=O)n2C
0.5 to 5 | < 0.5 | Cn1cncc1-c1nc2cc(-c3ccc(O)c(F)c3)ccc2n1-c1ccc2c(c1)n(C)c(=O)n2C
> 5 | 0.5 to 5 | CNC(=O)c1ccc(-c2ccc3c(c2)nc(C(C)C)n3-c2ccc3c(c2)n(C)c(=O)n3C)cc1F
> 5 | > 5 | CNS(=O)(=O)c1ccc2c(c1)nc(-c1c[nH]c3cc(C)ccc13)n2-c1ccc2c(c1)n(C)c(=O)n2C
> 5 | 0.5 to 5 | CNC(=O)c1ccc(-c2ccc3c(c2)nc(-c2c(C)ncn2C)n3-c2ccc3c(c2)n(C)c(=O)n3C)cc1F
> 5 | < 0.5 | CNC(=O)c1ccc(-c2ccc3c(c2)nc(-c2cccc(OC)c2C)n3-c2ccc3c(c2)n(C)c(=O)n3C)cc1F
> 5 | > 5 | CNC(=O)c1ccc(-c2ccc3c(c2)nc(-c2ccncc2)n3-c2ccc3c(c2)n(C)c(=O)n3C)cc1F
> 5 | 0.5 to 5 | CNC(=O)c1ccc(-c2ccc3c(c2)nc(C)n3-c2ccc3c(c2)n(C)c(=O)n3C)cc1F
> 5 | 0.5 to 5 | CNC(=O)c1ccc(-c2ccc3c(c2)nc(C(C)(C)C(=O)OC)n3-c2ccc3c(c2)n(C)c(=O)n3C)cc1F
> 5 | < 0.5 | CNC(=O)c1ccc(-c2ccc3c(c2)nc(-c2ccsc2C)n3-c2ccc3c(c2)n(C)c(=O)n3C)cc1F
> 5 | 0.5 to 5 | CNC(=O)c1ccc(-c2ccc3c(c2)nc(-c2cncc(C)c2)n3-c2ccc3c(c2)n(C)c(=O)n3C)cc1F
> 5 | > 5 | Cn1cncc1-c1nc2cc(-c3cnn(C)c3C#N)ccc2n1-c1ccc2c(c1)n(C)c(=O)n2C
0.5 to 5 | < 0.5 | CC(=O)Nc1ccc(-c2ccc3c(c2)nc(-c2cncn2C)n3-c2ccc3c(c2)n(C)c(=O)n3C)cc1F
> 5 | 0.5 to 5 | CNC(=O)c1ccc(-c2ccc3c(c2)nc(C(F)(F)F)n3-c2ccc3c(c2)n(C)c(=O)n3C)cc1F
> 5 | > 5 | CNC(=O)c1ccc(-c2ccc3c(c2)nc(-c2ccno2)n3-c2ccc3c(c2)n(C)c(=O)n3C)cc1F
0.5 to 5 | < 0.5 | COc1cc(-c2ccc3c(c2)nc(-c2cncn2C)n3-c2ccc3c(c2)n(C)c(=O)n3C)ccn1
